Laboratory results as given in patent US20090264298A1, “Methods for enriching subpopulations” (AMBERGEN, Inc., priority 2007, published 2009).

Legend:
[1] = target: T1, Src pp^60 tyrosine kinase (Homo sapiens, UniProt P12931); test: Kinase substrate profiling on contact photo-transferred protein microarray, Src pp^60; assay type: biochemical; conditions: plus ATP kinase reaction 30 min 37° C.; anti-phosphotyrosine detection
T1 construct: purchased Invitrogen Corporation

ZAP-70 tyrosine kinase = target: T2, ZAP-70 tyrosine kinase (Homo sapiens, UniProt P43403); test: Kinase substrate profiling on contact photo-transferred protein microarray, ZAP-70; assay type: biochemical; conditions: plus ATP kinase reaction 30 min 37° C.; anti-phosphotyrosine detection
T2 construct: purchased Invitrogen Corporation
T2 sequence (P43403 1-619): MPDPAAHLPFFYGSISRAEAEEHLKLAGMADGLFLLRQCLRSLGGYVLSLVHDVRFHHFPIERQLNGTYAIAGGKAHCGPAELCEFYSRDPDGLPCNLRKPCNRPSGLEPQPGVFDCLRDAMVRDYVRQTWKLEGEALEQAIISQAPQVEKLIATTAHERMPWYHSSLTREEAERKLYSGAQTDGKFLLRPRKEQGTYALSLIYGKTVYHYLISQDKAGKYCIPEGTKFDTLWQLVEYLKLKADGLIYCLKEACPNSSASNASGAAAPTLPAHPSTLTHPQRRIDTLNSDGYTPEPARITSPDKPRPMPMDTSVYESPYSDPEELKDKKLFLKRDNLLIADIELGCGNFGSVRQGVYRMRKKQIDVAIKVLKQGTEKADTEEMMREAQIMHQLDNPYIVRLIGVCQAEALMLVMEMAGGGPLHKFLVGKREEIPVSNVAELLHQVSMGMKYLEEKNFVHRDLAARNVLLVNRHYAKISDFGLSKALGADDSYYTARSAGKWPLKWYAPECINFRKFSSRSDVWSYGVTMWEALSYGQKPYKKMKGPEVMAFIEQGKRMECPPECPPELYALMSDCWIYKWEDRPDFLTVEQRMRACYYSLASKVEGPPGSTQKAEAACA

Substance: MDM: ubiquitin-protein ligase E3 MDM2, human, cell-free expressed, PC-biotin labeled
- phosphorylation of photo-transferred protein (substrate) by Src pp^60 [1]: heavily phosphorylate
- phosphorylation of photo-transferred protein (substrate) by ZAP-70 (ZAP-70 tyrosine kinase): heavily phosphorylate
